Legend:
[1] = biological target: KRAS protein containing G12D mutation (Homo sapiens (Human), UniProt P01116, G12D); test: SOS-catalyzed nucleotide exchange assay (GNE), TR-FRET; conditions: read-out: IC50 (nM) (GNE); biotinylated KRAS G12D, SOS and GTP, 60-minute incubation
[2] = tested on: AsPC-1 cells containing homozygous KRAS-G12D activating mutation; test: Cellular phospho-ERK assay (Examples 1a-106); conditions: read-out: IC50 (nM) pERK (Cell), 2 hours, ratio of p-Erk vs total Erk
[3] = biological target: KRAS G12D / Ras binding domain of C-RAF (Homo sapiens (Human), UniProt P01116, G12D); test: RAS:RAF-RBD binding assay (cRaf), TR-FRET; conditions: read-out: IC50 (nM) (cRaf); biotinylated KRAS G12D, GST-C-RAF RBD

Chains of the proteins cited; added tags and fusions are not shown. A line that says so, or that is headed by a name, gives the form on record, which may keep a tag or linker. Residues count along the entry.
UniProt P01116, 2-164 with tags or gaps G12D limits assumed: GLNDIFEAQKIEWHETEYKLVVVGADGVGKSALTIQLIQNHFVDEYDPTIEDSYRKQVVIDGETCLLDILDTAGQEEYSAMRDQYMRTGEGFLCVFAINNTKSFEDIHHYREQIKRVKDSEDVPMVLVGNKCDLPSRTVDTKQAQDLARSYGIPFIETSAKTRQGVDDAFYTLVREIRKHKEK

Row | SMILES | IC50 [1] [nM] | IC50 [2] [nM] | IC50 [3] [nM]
1 | CC1C2CCC(CN2)N1c1nc(OCC2(CN(C)C)CC2)nc2c(F)c(-c3cc(O)cc4ccccc34)c(Cl)cc12 (single isomer, unassigned) [8b] | 2180 | 12300 | –
2 | C[C@H]1N[C@H]2CC[C@@H]1N(c1nc(OCC3(CN(C)C)CC3)nc3c(F)c(-c4cc(O)cc5ccccc45)c(Cl)cc13)C2 | 117 | 2540 | 1790
3 | CC1C2CCC(CN2)N1c1nc(OCC2(CN(C)C)CC2)nc2c(F)c(-c3cc(O)cc4ccccc34)c(Cl)cc12 (single isomer, unassigned) [8a] | 7000 | 22900 | –
